The conditions of this series: within 3 hours following intravenous administration, rats.

With “3-[(2,4-dimethylpyrrol-5-yl)methylidenyl]-2-indolinone”, the fraction metabolized entry is on record as “greater than 90%”.
